Experimental data published in BindingDB's records for 20149667.

Amino acid sequences for entries named in this document (tags omitted). Residues count along the entry.
UniProt O42275, 24-633 limits assumed: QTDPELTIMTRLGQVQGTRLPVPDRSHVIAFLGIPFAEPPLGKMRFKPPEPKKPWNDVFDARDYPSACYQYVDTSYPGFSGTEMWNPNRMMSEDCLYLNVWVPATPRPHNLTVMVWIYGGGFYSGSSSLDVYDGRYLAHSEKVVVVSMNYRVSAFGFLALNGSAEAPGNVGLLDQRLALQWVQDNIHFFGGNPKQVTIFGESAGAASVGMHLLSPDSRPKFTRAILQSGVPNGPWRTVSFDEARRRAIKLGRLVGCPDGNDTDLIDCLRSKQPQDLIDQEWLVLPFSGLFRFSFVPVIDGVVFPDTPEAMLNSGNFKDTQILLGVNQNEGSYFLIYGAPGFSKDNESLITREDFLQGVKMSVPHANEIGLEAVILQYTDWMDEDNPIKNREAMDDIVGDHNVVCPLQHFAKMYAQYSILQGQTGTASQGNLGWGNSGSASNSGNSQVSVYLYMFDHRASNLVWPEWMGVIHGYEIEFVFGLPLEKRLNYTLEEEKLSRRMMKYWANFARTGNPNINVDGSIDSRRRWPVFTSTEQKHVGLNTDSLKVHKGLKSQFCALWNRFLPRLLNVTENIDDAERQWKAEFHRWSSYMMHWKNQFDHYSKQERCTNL

Molecular target: Acetylcholinesterase (Electrophorus electricus, UniProt O42275)
Assay: Inhibition of electric eel AChE by modified Ellman's method

O=NCC1CCN(CCCc2ccccc2)CC1
IC50: 278 µM
